By UniProt entry, the sequences of proteins in these tests, tags left out.
UniProt Q9NWZ3, whole entry: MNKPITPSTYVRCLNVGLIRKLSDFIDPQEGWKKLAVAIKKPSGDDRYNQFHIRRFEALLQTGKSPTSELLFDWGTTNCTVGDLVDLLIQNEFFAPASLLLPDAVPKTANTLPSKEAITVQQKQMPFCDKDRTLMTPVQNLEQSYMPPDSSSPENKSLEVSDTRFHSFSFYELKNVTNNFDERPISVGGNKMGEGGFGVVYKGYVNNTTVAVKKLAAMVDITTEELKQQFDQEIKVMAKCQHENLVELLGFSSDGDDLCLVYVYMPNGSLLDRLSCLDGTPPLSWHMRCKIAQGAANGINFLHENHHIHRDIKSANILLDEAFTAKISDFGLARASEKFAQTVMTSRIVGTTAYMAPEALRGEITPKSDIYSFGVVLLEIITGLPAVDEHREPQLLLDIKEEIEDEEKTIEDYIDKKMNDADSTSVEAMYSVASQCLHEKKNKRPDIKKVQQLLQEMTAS

In patent US10040802B2, “Thienopyrazine inhibitors of IRAK4 activity” (MERCK SHARP & DOHME CORP., priority 2015, dated 2018):

Biological target: GST tagged IRAK4 (Homo sapiens (Human), UniProt Q9NWZ3)
Assay: IRAK4 Kinase Assay (IMAP fluorescence polarization)
Conditions: read-out: IRAK4 IC50; 0.5 nM GST tagged IRAK4, 100 μM ATP, 30 minutes at 25° C.; tested form: TFA
Experimental: The kinase activity of IRAK4 is determined by its ability to catalyze the phosphorylation of a fluorescent polypeptide substrate. The extent of phosphorylation is measured using the IMAP technology (Molecular Devices) where the phosphorylated fluorescent substrate binds to the large M(III)-based nanoparticles which reduces the rotational speed of the substrate and thus increases its fluorescent polarization (FP).
20 μL reaction mixture contains 10 mM TriHCl, pH 7.2, 0.5 nM GST tagged IRAK4 (SignalChem), 100 nM fluorescent peptide substrate (RP7030, Molecular Devices), 100 μM ATP, 1 mM DDT, 1 mM MgCl2, and 0.01% Tween 20. The reaction is initiated by the addition of ATP. After incubation for 30 minutes at 25° C., 60 μL of Progressive IMAP Reagent (Molecular Devices) is added to stop the reaction. Change in RP7030's FP is determined by a FP reader (Analyst HT, LJL BioSystems).

`Cn1ncc(NC(=O)c2csc3ncc(N[C@@H]4CCCC[C@@H]4N)nc23)c1C(F)(F)F` was tested. Which IC50 did it give?
Its IC50 is 16 nM.
